The target in the test is Oxysterols receptor LXR-beta (Homo sapiens, UniProt P55055).

Chains of the proteins cited; added tags and fusions are not shown.
UniProt P55055, whole entry, looked up: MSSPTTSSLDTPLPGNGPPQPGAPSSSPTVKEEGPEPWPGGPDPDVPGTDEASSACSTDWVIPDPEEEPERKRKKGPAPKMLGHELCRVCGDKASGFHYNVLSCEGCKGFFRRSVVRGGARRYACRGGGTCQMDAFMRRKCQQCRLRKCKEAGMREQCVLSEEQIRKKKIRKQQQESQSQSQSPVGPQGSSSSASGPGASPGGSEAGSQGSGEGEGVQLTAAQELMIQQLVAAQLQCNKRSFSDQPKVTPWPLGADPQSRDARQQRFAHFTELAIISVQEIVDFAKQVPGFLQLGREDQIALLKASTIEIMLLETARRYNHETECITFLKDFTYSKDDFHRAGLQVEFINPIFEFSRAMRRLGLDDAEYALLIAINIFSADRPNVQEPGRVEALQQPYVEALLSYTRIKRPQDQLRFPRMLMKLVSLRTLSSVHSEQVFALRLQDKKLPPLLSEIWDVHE

In general, Ki refers to the equilibrium dissociation constant of an inhibitor or competing ligand from its target.

With `CC(C)[C@@H]1CN(c2ccc(F)c(S(C)(=O)=O)c2)CCN1C(=O)OC(C)C(F)(F)F` (stereo partly drawn), the inhibition constant Ki was found to be 38 nM.

The molecule `CC(C)[C@@H]1CN(c2ccc(F)c(S(C)(=O)=O)c2)CCN1C(=O)OC(C)(C)C(F)(F)F` came in with a Ki of 15 nM.

Regarding `CC(C)[C@@H]1CN(c2ccc(F)c(S(C)(=O)=O)c2)CCN1C(=O)OC1CC(F)(F)C1(F)F` (stereo partly drawn), the affinity, expressed as Ki, was 54 nM.

Values taken from ChEMBL document CHEMBL5725956, “Piperazine derivatives as liver X receptor modulators” (2018).
